Six compounds from patent US8987335B2, “Substituted (E)-N′-(1-phenylethylidene)benzohydrazide analogs as histone demethylase inhibitors” (University of Utah Research Foundation, priority 2011, dated 2015) can be followed below.

What all share (format): cell-based
One experiment deals with T-47D cells. Description: Cell Viability Assay (ATPlite), T-47D. As to conditions: Homo sapiens, T47D, 96-hours of incubation, read-out: Cell Growth, IC50.
Another experiment deals with MDA-MB-231. Description: Cell Viability Assay (ATPlite), MDA-MB-231. Conditions: Homo sapiens, 96-hours of incubation, read-out: Cell Growth, IC50. How it is done:
(§1) Cancer cell lines were obtained from ATCC. Cells were cultured according to the procedures provided. In addition to the supplements indicated in Table 4, media were also supplemented with 1% penicillin/streptomycin (100 IU/mL penicillin and 100 μg/mL streptomycin). Cells were cultured at 37° C. and 5% CO2. ATCC is the American Type Culture Collection (Manassas, Va.).
(§2) Cell viability was determined using ATPlite™ Luminescence Assay System (PerkinElmer Inc., Waltham, Mass.) using the various cell-lines described above and in Table 4. Briefly, cells were seeded in 96-well plates and then treated with different concentrations of inhibitor (0.1% final DMSO concentration). After 96-hours of incubation, ATPlite detection reagent was added directly to the culture well. Luminescence was read 5 minutes later on an Envision microplate reader.
On the technique in general: ATP-based viability assays read luminescence as a measure of living cells.

The test system of a further experiment is PC-3. Description: Cell Viability Assay (ATPlite), PC-3. As to conditions: Homo sapiens, 96-hours of incubation, read-out: Cell Growth, IC50. As for the experimental part: as §1, §2

With `O=C(N/N=C/c1cc(Cl)ccc1O)c1ccc(O)cc1` [Compound 2], in the experiment with T-47D cells, the IC50 was 821 nM.
Turning to `O=C(N/N=C/c1ccccc1O)c1cccc(Cl)c1` [Compound 5], the IC50 in the experiment with T-47D cells came out at 615 nM.
Turning to `C/C(=N\NC(=O)c1cccc(S(=O)(=O)N2CCOCC2)c1)c1cc(Cl)ccc1O` [Compound 12, (E)-N′-(1-(5-chloro-2-hydroxyphenyl)ethylidene)-3-(morpholinosulfonyl)benzohydrazide], the results for the half-maximal inhibitory concentration (IC50) in the experiment with MDA-MB-231 and in the experiment on PC-3 were 1040 nM and 2160 nM, respectively.
Regarding `C/C(=N\NC(=O)c1ccc(O)cc1)c1ccccc1O` [Compound 3], the IC50 in the experiment with T-47D cells is 971 nM.
Take `O=C(N/N=C/c1ccccc1O)c1ccc(Br)cc1` [Compound 4]: the IC50 in the experiment with T-47D cells amounted to 96 nM.
Turning to `O=C(N/N=C/c1ccccc1O)c1ccc(O)cc1` [Compound 1], the IC50 with T-47D cells worked out at 2700 nM.

For orientation: IC50 means the midpoint of a concentration-inhibition curve.
